# Laboratory results published in patent US20090041767A1, “PHARMACEUTICAL COMBINATIONS” (priority 2007, published 2009).
# The chains behind the UniProt entries cited, without tags or fusion partners. Residues count along the entry.
# UniProt P08648, 42-1049: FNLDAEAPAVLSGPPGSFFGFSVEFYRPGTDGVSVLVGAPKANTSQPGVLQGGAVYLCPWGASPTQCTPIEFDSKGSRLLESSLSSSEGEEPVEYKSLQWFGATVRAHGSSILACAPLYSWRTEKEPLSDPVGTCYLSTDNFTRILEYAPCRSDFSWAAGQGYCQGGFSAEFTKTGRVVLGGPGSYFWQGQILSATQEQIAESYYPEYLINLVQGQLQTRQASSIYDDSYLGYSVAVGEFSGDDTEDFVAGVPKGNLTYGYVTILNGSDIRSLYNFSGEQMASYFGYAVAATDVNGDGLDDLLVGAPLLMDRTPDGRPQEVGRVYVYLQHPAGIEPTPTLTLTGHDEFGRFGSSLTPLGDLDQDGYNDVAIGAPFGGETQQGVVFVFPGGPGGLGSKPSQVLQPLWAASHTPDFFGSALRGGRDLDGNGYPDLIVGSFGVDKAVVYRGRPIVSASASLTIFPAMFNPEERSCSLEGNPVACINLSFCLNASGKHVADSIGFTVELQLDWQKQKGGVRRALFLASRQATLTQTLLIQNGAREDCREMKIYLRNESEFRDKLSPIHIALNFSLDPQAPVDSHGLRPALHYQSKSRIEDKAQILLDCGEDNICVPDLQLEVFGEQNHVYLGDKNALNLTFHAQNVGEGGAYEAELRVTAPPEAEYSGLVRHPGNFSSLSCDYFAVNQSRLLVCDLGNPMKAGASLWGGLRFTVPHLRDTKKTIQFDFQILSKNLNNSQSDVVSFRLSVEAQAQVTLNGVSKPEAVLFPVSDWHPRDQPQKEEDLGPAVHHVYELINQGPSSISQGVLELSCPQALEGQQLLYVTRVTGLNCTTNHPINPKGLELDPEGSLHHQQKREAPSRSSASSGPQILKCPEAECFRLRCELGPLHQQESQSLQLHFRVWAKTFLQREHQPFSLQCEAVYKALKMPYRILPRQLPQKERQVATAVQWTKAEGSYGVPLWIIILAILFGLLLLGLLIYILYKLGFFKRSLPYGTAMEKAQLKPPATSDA
# UniProt P09055, 21-798: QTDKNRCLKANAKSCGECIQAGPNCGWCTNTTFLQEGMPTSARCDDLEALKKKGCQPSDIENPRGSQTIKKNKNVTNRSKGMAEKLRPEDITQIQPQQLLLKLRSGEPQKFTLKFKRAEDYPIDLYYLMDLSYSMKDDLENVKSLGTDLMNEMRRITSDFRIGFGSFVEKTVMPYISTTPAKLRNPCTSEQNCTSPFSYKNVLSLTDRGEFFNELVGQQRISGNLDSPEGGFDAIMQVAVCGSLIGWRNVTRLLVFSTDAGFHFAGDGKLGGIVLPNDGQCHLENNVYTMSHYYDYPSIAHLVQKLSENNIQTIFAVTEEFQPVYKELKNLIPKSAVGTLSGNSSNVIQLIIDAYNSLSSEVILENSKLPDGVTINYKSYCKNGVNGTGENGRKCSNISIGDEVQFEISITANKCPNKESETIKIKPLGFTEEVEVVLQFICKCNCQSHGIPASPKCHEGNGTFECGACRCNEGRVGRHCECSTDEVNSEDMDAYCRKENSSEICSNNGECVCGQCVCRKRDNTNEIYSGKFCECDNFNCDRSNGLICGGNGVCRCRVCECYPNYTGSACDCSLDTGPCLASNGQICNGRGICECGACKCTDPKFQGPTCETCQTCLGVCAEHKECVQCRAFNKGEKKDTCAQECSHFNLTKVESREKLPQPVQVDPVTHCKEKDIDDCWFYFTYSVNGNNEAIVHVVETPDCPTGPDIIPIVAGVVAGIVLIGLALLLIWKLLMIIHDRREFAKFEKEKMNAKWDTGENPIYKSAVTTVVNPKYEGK
# UniProt P11688, 45-1053: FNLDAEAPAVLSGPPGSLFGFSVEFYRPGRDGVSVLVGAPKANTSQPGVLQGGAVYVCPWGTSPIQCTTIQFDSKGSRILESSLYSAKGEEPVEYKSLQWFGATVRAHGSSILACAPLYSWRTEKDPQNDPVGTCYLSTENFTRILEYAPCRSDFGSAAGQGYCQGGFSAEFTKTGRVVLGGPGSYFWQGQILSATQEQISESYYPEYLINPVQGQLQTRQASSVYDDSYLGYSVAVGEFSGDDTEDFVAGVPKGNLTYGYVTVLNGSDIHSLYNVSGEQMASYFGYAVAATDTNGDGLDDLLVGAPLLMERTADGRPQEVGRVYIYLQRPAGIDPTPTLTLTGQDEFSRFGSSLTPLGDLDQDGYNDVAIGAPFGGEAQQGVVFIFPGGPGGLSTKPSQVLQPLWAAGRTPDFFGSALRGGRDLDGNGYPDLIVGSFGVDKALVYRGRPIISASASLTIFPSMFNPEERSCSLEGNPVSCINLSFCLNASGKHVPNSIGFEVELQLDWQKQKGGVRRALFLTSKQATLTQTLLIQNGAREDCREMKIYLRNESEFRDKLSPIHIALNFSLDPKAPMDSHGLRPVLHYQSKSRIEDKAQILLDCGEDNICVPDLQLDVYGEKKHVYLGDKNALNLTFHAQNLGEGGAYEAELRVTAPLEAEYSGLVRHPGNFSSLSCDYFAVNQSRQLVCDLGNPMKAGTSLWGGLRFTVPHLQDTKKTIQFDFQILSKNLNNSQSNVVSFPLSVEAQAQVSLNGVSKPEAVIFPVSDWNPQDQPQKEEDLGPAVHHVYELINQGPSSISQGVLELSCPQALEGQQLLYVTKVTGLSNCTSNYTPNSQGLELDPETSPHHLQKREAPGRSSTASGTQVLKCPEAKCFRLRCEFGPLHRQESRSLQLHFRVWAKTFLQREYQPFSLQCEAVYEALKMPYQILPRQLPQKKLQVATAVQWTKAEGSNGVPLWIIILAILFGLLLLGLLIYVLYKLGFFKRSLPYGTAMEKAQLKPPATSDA
# Legend:
# human α5β1 = human α5β1 (Homo sapiens, UniProt P05556+P08648); assay: antibody binding to human α5β1 integrin
# mouse α5β1 = mouse α5β1 (Mus musculus, UniProt P09055+P11688); assay: antibody binding to mouse α5β1 integrin
substance,measurement,setting,value
"volociximab: high-affinity, chimeric IgG4 monoclonal antibody that specifically binds α5β1 integrin; heavy chain SEQ ID NO: 2, light chain SEQ ID NO: 4",binding to human α5β1,human α5β1,binds human α5β1 with high affinity
same,binding to mouse α5β1,mouse α5β1,does not cross-react with mouse α5β1
